# PubChem BioAssay AID504327 (National Center for Advancing Translational Sciences (NCATS), 2011)
# Chains of the proteins cited; added tags and fusions are not shown.
# UniProt Q92830, whole entry, looked up: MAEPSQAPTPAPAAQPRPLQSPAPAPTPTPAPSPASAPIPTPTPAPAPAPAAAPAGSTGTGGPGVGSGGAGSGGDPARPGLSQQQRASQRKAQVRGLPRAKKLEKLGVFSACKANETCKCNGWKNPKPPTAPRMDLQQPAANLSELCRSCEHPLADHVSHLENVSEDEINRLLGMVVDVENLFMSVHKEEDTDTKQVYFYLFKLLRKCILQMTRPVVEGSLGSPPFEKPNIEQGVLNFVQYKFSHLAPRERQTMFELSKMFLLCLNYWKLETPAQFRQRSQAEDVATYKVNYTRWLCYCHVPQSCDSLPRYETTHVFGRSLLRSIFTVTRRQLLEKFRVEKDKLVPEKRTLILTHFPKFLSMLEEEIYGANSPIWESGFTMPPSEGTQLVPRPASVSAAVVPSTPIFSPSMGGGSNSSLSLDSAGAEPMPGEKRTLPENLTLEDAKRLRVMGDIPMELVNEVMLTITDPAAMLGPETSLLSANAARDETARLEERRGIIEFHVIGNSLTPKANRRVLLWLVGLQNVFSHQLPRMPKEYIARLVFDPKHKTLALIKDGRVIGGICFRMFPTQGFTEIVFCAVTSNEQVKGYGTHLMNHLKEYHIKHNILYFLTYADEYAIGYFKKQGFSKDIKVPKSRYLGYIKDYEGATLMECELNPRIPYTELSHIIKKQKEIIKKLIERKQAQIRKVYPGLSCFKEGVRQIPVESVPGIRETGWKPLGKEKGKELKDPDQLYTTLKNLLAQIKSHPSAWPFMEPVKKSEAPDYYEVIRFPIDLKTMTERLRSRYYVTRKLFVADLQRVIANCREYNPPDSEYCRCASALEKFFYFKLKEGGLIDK
# The list shows a part of the results, in another mix than the full data. Records with an inconclusive call do not appear. A call without a number means that no potency is given here. Calls of active or inactive are those of the source. The call rests on the fitted dose curve; in most records, active means well fitted inhibition curve with a large enough effect; inconclusive means small, poorly fitted or top-dose-only effect, or another doubt; inactive means no such curve, though single readings can be large or run the other way.
# Molecular target: Histone acetyltransferase KAT2A (Homo sapiens) (UniProt Q92830)
# Assay: qHTS Assay for Inhibitors of GCN5L2
# Conditions: GCN5L2 HAT assay, ThioGlo1 CoA-SH fluorescence; series mostly up to 58.9 µM
# Potency means the concentration at half of the fitted maximal effect.
row,SMILES,Potency
1,CS(=O)(=O)c1ccc(Cl)c(NC(=O)COC(=O)C(O)(c2ccccc2)c2ccccc2)c1,inactive
2,O=[As](O)(O)c1cccnc1,inactive
3,COc1cc(C(=O)NCC2(N3CCOCC3)CCCCC2)cc(Cl)c1OC(C)C,inactive
4,CN(C(=O)Cc1ccc(Cl)c(Cl)c1)[C@@H]1CC[C@]2(CCCO2)C[C@H]1N1CCCC1,inactive
5,O=C(OC1CN2CCC1CC2)c1ccc(Cl)cc1 (centres undefined),inactive
6,O=[As](O)(c1cccc(O)c1)c1cccc(O)c1,inactive
7,CCCOP(=S)(Nc1nc(N)cc(=O)[nH]1)OCCC,inactive
8,Nc1cccc2c([As](=O)(O)O)cccc12,inactive
9,Cc1ccc(NCCc2c([N+](=O)[O-])cc([N+](=O)[O-])cc2[N+](=O)[O-])cc1,inactive
10,CCOP(=O)(Nc1cccc2ccccc12)OCC,inactive
11,COc1cc(C2NCCC3(OCCO3)C2(C)C)cc(OC)c1OC (centres undefined),inactive
12,CS(=O)(=O)c1cc([N+](=O)[O-])c2no[n+]([O-])c2c1,active: 7.94 µM
13,O=P(Nc1nccs1)(Oc1ccccc1)Oc1ccccc1,inactive
14,O=P(Nc1nccs1)(c1ccccc1)c1nc2ccccc2s1 (centres undefined),active: 3.16 µM
15,CCOP1(=S)c2c(C)nn(CCC#N)c2N=C(c2ccccc2F)N1C (centres undefined),inactive
16,Nc1ccccc1[As](=O)(O)c1ccccc1,inactive
17,NC(=O)Nc1ccc([As](=O)(O)O)cc1,inactive
18,O=[N+]([O-])c1ccc2c(c1)nnn2O,inactive
19,CCOP1(=S)c2c(C)nn(CCC#N)c2N=C(c2ccc(F)cc2)N1C (centres undefined),inactive
20,CN(C(=O)Cc1ccccc1)[C@@H]1CC[C@]2(CCCO2)C[C@H]1N1CCCC1,inactive
21,N#CCCN(C(=O)COC(=O)C(O)(c1ccccc1)c1ccccc1)c1ccc(F)cc1,inactive
22,Cc1ccc(C(=O)OC2CN3CCC2CC3)cc1 (centres undefined),inactive
23,CC1CCC(C(C)C)C(OP(=O)(Nc2ccccn2)c2ccccc2)C1 (centres undefined),inactive
24,Cc1nn(-c2ccccc2)c2c1P(=O)(N1CCOCC1)N(C)C(c1ccccc1)=N2 (centres undefined),inactive

row,SMILES,Potency
1,O=C(/C=C/c1ccccc1)OC1CN2CCC1CC2 (centres undefined),inactive
2,CN(C)C1(CNC(=O)c2ccc(S(C)(=O)=O)cc2)CCCCC1,inactive
3,O=P1(Nc2ncccn2)COc2ccccc2OC1,inactive
4,O=[As](O)(c1cccs1)c1cccs1,inactive
5,Cc1ccc(OCC(=O)OC2CN3CCC2CC3)cc1 (centres undefined),inactive
6,NS(=O)(=O)c1cccc(NC(=O)COC(=O)C(O)(c2ccccc2)c2ccccc2)c1,inactive
7,O=P1(Nc2ccc(Br)cn2)COc2ccccc2OC1,inactive
8,Nc1cccc([As](=O)(O)c2ccccc2)c1,inactive
9,CCOP(=O)(Nc1ccc(C)cn1)OCC,inactive
10,CN(CCCl)Cc1cc(Cl)c(NC2=NCCN2)c(Cl)c1,inactive
11,CCOP(=O)(NC(=NC(C)c1ccccc1)NC(C)c1ccccc1)OCC (centres undefined),inactive
12,CCC1=CC2Cc3nc4ccc(Cl)cc4c(N)c3C(C1)C2 (centres undefined),inactive
13,O=P1(Nc2ccccn2)COc2ccccc2OC1,inactive
14,CC(C)(C)C(=O)NC(Sc1ncccn1)C(Cl)(Cl)Cl (centres undefined),inactive
15,Clc1n[nH]nc1-c1nn[nH][15n]1,inactive
16,COc1ccccc1CNC(=O)COC(=O)C(O)(c1ccccc1)c1ccccc1,inactive
17,O=[As](O)(c1ccccc1Br)c1ccccc1Br,inactive
18,CC(C)/C=N\N=C(\N)N[N+](=O)[O-],inactive
19,COP1(=S)c2c(C)nn(CCC#N)c2N=C(c2ccc(F)cc2)N1C (centres undefined),inactive
20,O=C(Nc1ccncc1[N+](=O)[O-])c1ccc([N+](=O)[O-])cc1[N+](=O)[O-],inactive
21,O=C(COc1ccccc1)OC1CN2CCC1CC2 (centres undefined),inactive
22,CCOC(=O)c1ccc(NC(=O)C(C)(CCl)SC)cc1 (centres undefined),inactive
23,O=C(OC1CN2CCC1CC2)c1cccc([N+](=O)[O-])c1 (centres undefined),inactive
24,CCC(C)N(CC(C)C)C(=S)SC(NC(C)=O)C(Cl)(Cl)Cl (centres undefined),inactive

row,SMILES,Potency
1,CCOC(=O)Nc1ccc([As](=O)(O)O)c(O)c1,inactive
2,Cc1cc(SC(NC(=O)c2ccccc2)C(Cl)(Cl)Cl)nc(C(C)C)n1 (centres undefined),inactive
3,CCCCOc1ccc(C(=O)NCC2(N3CCCCC3)CCCCC2)cc1OC,inactive
4,CCOC(=O)Nc1cccc([As](=O)(O)O)c1,inactive
5,O=[N+]([O-])c1ccc(Nc2ccc(Oc3ccc([N+](=O)[O-])cc3[N+](=O)[O-])cc2)c([N+](=O)[O-])c1,inactive
6,Cc1cc(SC(NC=O)C(Cl)(Cl)Cl)ncn1 (centres undefined),inactive
7,O=P(Nc1ccccn1)(c1cccc2ccccc12)c1cccc2ccccc12,inactive
8,COc1cc(C(=O)NCC2(N3CCOCC3)CCCCC2)ccc1OCC(C)C,inactive
9,O=[As](O)(c1ccc(O)cc1)c1ccccc1O,inactive
10,C[As](=O)(O)c1cccc(C(=O)O)c1,inactive
11,Cc1ccc2nc3c(c(C)c2c1)CC(C(Cl)Cl)S3 (centres undefined),inactive
12,Cc1ccc(OP(=O)(Nc2ccc([N+](=O)[O-])cn2)Oc2ccc(C)cc2)cc1,inactive
13,CC(C)c1ccc(OP(=O)(Nc2ccccn2)Oc2ccccc2F)cc1 (centres undefined),inactive
14,ClCCSc1nnc(-c2cccnc2)o1,inactive
15,O=[N+]([O-])c1cc([N+](=O)[O-])c(-c2ccn[nH]2)s1,inactive
16,CC(C)NC(=O)NP(=O)(Oc1ccccc1)Oc1ccccc1,inactive
17,CCN(CC)C(=S)SC(NC=O)C(Cl)(Cl)Cl (centres undefined),inactive
18,Cc1cc(=O)[nH]c(N[N+](=O)[O-])n1,inactive
19,O=C(OC1CN2CCC1CC2)C12CC3CC(CC(C3)C1)C2 (centres undefined),inactive
20,Cc1c2c(nc3ccccc13)SC(C(Cl)Cl)C2 (centres undefined),inactive
21,COc1cc(I)ccc1[As](=O)(O)O,inactive
22,COc1ccc2nc(NP(=O)(c3ccccc3)c3ccccc3)sc2c1,inactive
23,COc1ccc(N/C(=N/P(=O)(N2CCOCC2)N2CCOCC2)N2CCOCC2)cc1,inactive
24,NC(=O)c1cc([N+](=O)[O-])cc([N+](=O)[O-])c1N,inactive

row,SMILES,Potency
1,Cc1ccc(N/C(=N/P(=O)(N2CCOCC2)N2CCOCC2)N2CCOCC2)cc1,inactive
2,Cc1ccc(OP(=O)(Nc2nccs2)Oc2ccc(C)cc2)cc1,inactive
3,COc1ccccc1OP(=O)(Nc1ccc(C)cn1)Oc1ccccc1OC,inactive
4,CN1CCCC(OC(=O)C(c2ccccc2)c2ccccc2)C1 (centres undefined),inactive
5,Clc1ccc(Cl)c(NC2=NCC(CBr)S2)c1 (centres undefined),inactive
6,Nc1cc(N)c2nonc2c1[N+](=O)[O-],inactive
7,O=C(NC(Sc1ccncn1)C(Cl)(Cl)Cl)c1ccccc1 (centres undefined),inactive
8,Cc1c2non([O-])c-2c(C)[n+](=O)[n+]1[O-],inactive
9,Oc1ccccc1CNc1ccccn1,inactive
10,CC(=O)Nc1ccc([As](=O)(O)O)cc1,inactive
11,O=C(O)c1ccccc1[As](=O)(O)O,inactive
12,O=P(Nc1nc2ccc(Cl)cc2s1)(c1ccccc1)c1ccccc1,inactive
13,Cc1ccc(NP(=O)(Oc2ccccc2F)Oc2ccccc2F)nc1,inactive
14,Cc1cc(SC(NC(=O)c2ccc(F)cc2)C(Cl)(Cl)Cl)ncn1 (centres undefined),inactive
15,CCOP(=O)(Nc1ccccc1)OCC,inactive
16,O=[N+]([O-])c1cc([N+](=O)[O-])c(CCN2CCOCC2)c([N+](=O)[O-])c1,inactive
17,CCN(N=Nc1nonc1N)c1nonc1N,inactive
18,Nc1cccc2ccc([As](=O)(O)O)cc12,inactive
19,O=C(Nc1cc([As](=O)(O)O)ccc1O)c1ccccc1,inactive
20,CC(C)(C)C(=O)NC(Sc1ccncn1)C(Cl)(Cl)Cl (centres undefined),inactive
21,O=[N+]([O-])c1ncn(CCn2ncnc2[N+](=O)[O-])n1,inactive
22,O=[N+]([O-])c1cccc(NC2=NCC(CBr)S2)c1 (centres undefined),inactive
23,O=C(O)CNc1ccc([As](=O)(O)O)cc1,inactive
24,COc1ccc(C2=NCC(CBr)S2)cc1 (centres undefined),inactive

row,SMILES,Potency
1,CC(=O)N1C2C3N(C(C)=O)C1C1N(C(C)=O)C(C(N1C(C)=O)N3C(C)=O)N2C(C)=O,inactive
2,O=[N+]([O-])c1cccc2n[nH]nc12,inactive
3,O=[N+]([O-])c1cc([N+](=O)[O-])c(CCNc2ccccc2)c([N+](=O)[O-])c1,inactive
4,CCc1nc2c(n1)c1c(non1O)c1c2no[n+]1[O-],inactive
5,Cc1ccc(NP(=O)(Oc2ccccc2)Oc2ccccc2)nc1,inactive
6,C[N+]1=C2C=CC=CC=C2SC12C([N+](=O)[O-])=CC([N+](=O)[O-])=C[C-]2[N+](=O)[O-] (centres undefined),inactive
7,Nc1ccc([As](=O)(O)c2ccc(N)cc2)cc1,inactive
8,CCN(/C(=N/P(=O)(N1CCOCC1)N1CCOCC1)N1CCOCC1)c1ccc(OC)cc1,inactive
9,CC(C)=N/N=C(\N)N[N+](=O)[O-],inactive
10,CC1CCN(C(=O)Oc2c(Cl)cc(Cl)c3cccnc23)CC1,inactive
11,CC(=O)C1=CCCC2CCC1N2 (centres undefined),inactive
12,O=P(Nc1nccs1)(c1ccccc1)c1ccccc1,inactive
13,CC(C)C(=O)NC(Sc1ccccc1)C(Cl)(Cl)Cl (centres undefined),inactive
14,CCC(C)(OOC(C)(C)C)OOC(C)(C)C,inactive
15,c1nnnn1CCn1cnnn1,inactive
16,CN(C)C1(CNC(=O)c2ccc(Cl)c(S(N)(=O)=O)c2)CCCCC1,inactive
17,O=P(Nc1ccccn1)(c1ccc(Br)cc1)c1ccc(Br)cc1,inactive
18,C[C@H]1OP(=O)(Oc2ccccc2)[C@H](O)[C@H](O)[C@H]1N=[N+]=[N-] (some centres undefined),inactive
19,O=P(Nc1nc2ccccc2s1)(c1ccccc1)c1ccccc1,inactive
20,CN(C(=O)Cc1ccccc1)[C@H]1CC[C@@]2(CCCO2)C[C@@H]1N1CCCC1,inactive
21,O=[N+]([O-])c1ncn(CCn2cnc([N+](=O)[O-])n2)n1,inactive
22,CC(=O)NC(SC(=S)N(C)C)C(Cl)(Cl)Cl (centres undefined),inactive
23,O=[N+]([O-])c1ccc(O)c(/C=N/Nc2ccc([N+](=O)[O-])cc2[N+](=O)[O-])c1,inactive
